{"source": "patent US20070212428A1", "about": "“METHODS AND COMPOSITIONS FOR TREATING MOOD DISORDER” (MOOD MANAGEMENT SCIENCES, INC., priority 2004, published 2007)", "key": {"[1]": {"tested_on": "neuronal serotonin reuptake", "settings": "cited from earlier work"}, "[2]": {"tested_on": "treatment resistant depression", "type": "in vivo, human", "settings": "augmenting Zoloft, titrated to 120 mg"}, "[3]": {"settings": "cited from earlier work; for time to peak plasma concentration: after oral dosing"}, "[4]": {"settings": "cited from earlier work; for mean increase in Cmax / mean increase of the AUC: following fluvoxamine"}, "[5]": {"tested_on": "muscarinic, α1-adrenergic, α2-adrenergic, β-adrenergic, dopamine (D2), 5-HT1, 5-HT2, and histamine (H1) receptors", "settings": "cited from earlier work"}, "[6]": {"tested_on": "serotonin 5-HT2, dopamine D2, α1 and α2 adrenergic, and H1 histaminergic receptors", "settings": "cited from earlier work"}, "[7]": {"settings": "with fluoxetine 60 mg single dose or 60 mg daily for 8 days"}}, "note": "Counter-ions that a name gives are not always drawn. Like-named read-outs stand apart in the source and are kept apart here.", "data": [{"compound": "1-(aminoethyl)cyclohexaneacetic acid [gabapentin]", "values": [{"measurement": "inhibition of serotonin reuptake (in words)", "setting": "[1]", "value": "does not alter"}]}, {"compound": "CNCC[C@H](Oc1cccc2ccccc12)c1cccs1.Cl", "note": "[duloxetine, (+)-(S)-N-methyl-γ-(1-naphthyloxy)-2-thiophenepropylamine hydrochloride]", "values": [{"measurement": "resolution of depression", "setting": "[2]", "value": "approximately 50%"}, {"measurement": "time to steady state plasma concentrations", "setting": "[3]; repeated dosing", "value": 3, "unit": "days"}]}, {"compound": "Cc1cc2c(s1)Nc1ccccc1N=C2N1CCN(C)CC1", "note": "[olanzapine, 2-methyl-4-(4-methyl-1-piperazinyl)-10H-thieno[2,3-b][1,5]benzodiazepine]", "values": [{"measurement": "time to peak plasma concentration", "setting": "[3]", "value": "approximately 6 hours"}, {"measurement": "time to steady state plasma concentrations", "setting": "[3]; daily dosing", "value": "about 1 week"}, {"measurement": "fraction of the dose metabolized before reaching system circulation (first pass)", "setting": "[3]; human, in vivo", "value": "approximately 40%"}, {"measurement": "clearance", "setting": "[4]; co-administered with fluvoxamine", "value": "decreases"}, {"measurement": "mean increase in Cmax", "setting": "[4]; female non smokers", "value": 54, "unit": "%"}, {"measurement": "mean increase of the AUC", "setting": "[4]; female non smokers", "value": 52, "unit": "%"}, {"measurement": "mean increase in Cmax", "setting": "[4]; male smokers", "value": 77, "unit": "%"}, {"measurement": "mean increase of the AUC", "setting": "[4]; male smokers", "value": 108, "unit": "%"}, {"measurement": "effect on each drug's metabolism", "setting": "[4]; olanzapine co-administered with valproate", "value": "little effect"}, {"measurement": "clearance", "setting": "[4]; [7]", "value": "small decrease"}, {"measurement": "maximum concentration", "setting": "[4]; [7]", "value": "small increase"}]}, {"compound": "Fc1ccc([C@@H]2CCNC[C@H]2COc2ccc3c(c2)OCO3)cc1", "note": "[paroxetine, (−)-trans-4R-(4′-fluorophenyl)-3S-[(3′,4′-methylenedioxyphenloxy)methyl]piperidine hydrochloride hemihydrate]", "values": [{"measurement": "affinity", "setting": "[5]", "value": "little affinity"}]}, {"compound": "Cc1nc2n(c(=O)c1CCN1CCC(c3noc4cc(F)ccc34)CC1)CCCC2", "note": "[risperidone, 3-[2-[4-(6-fluoro-1,2-benzisoxazol-3-yl)piperidino]ethyl]-2-methyl-6,7,8,9-tetrahydro-4H-pyrido-[1,2-a]pyrimidin-4-one]", "values": [{"measurement": "time to peak plasma concentration", "setting": "[3]", "value": "about 1 hours"}, {"measurement": "half-life", "setting": "[3]; extensive metabolizers", "value": 3, "unit": "h"}, {"measurement": "time to steady state concentrations", "setting": "[3]; extensive metabolizers", "value": 1, "unit": "days"}, {"measurement": "time to steady state concentrations", "setting": "[3]; poor metabolizers (expected)", "value": "about 5 days"}, {"measurement": "half-life", "setting": "[3]; poor metabolizers", "value": 20, "unit": "h"}, {"measurement": "decrease of clearance of risperidone and its metabolites", "setting": "[3]; renally impaired", "value": 60, "unit": "%"}, {"measurement": "increase of plasma concentrations", "setting": "[4]; co-administered with fluoxetine (20 mg QD)", "value": "2.5-2.8 fold"}, {"measurement": "affinity", "setting": "[6]", "value": "high affinity"}]}]}
